# scFv variants of Ab-14 (light chain) against a SARS-CoV-2 spike peptide

From the AlphaSeq antibody data of Li et al. 2023 (doi:10.1038/s41467-023-39022-2), copy in the FLAb collection.

Target: peptide PDVDLGDISGINAS, taken from heptad repeat 2 (HR2) of SARS-CoV-2 spike.

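Phage display of a naive human antibody library on the peptide gave the parent. These sequences belong to a second round, designed from the earlier measurements on random variants of the parent. Their group label is 14L_En_Gibbs (En: ensemble of fine-tuned language models; Gibbs: Gibbs sampling). The assay is AlphaSeq: two haploid yeast populations carry antibody and antigen on their surface. After mating in shaken culture at 30 °C for 16 h, diploids were selected and their barcode pairs sequenced. Scores were corrected for input abundance and mapped to Kd with protein pairs of known affinity run in the same pool. Each pool was mated in six replicate cultures.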

Ab-14 is the parent antibody, in scFv form: VH, then a 15-residue (Gly4Ser)3 linker, then VL. The heavy chain is unchanged in all variants.
VH: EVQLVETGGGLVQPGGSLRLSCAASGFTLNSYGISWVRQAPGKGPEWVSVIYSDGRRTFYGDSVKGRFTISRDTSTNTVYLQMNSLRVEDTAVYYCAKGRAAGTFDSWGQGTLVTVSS
VL: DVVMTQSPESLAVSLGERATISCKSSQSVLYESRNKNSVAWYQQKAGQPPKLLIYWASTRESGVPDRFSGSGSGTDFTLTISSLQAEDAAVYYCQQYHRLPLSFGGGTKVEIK

Each variant is given by its three light chain CDRs, as the data file delimits them; those of the parent are KSSQSVLYESRNKNSVA, WASTRES, QQYHRLPLS. Numbers give log10(Kd / nM), so 0 is 1 nM and 3 is 1 µM. Smaller is tighter. "ND" marks a missing value. The strain was present, yet no cells mated with the target were sequenced in that replicate, which points to weak or no binding.

| # | CDR-L1 | CDR-L2 | CDR-L3 | replicates, log10 nM | empty controls |
|---|---|---|---|---|---|
| 1 | QISVFELQGTGWAQNIA | QASHRTE | QQFSRLPLV | 1.59 1.42 1.27 0.47 1.45 0.62 | 0 of 18 |
| 2 | HLGQEGYNQTYAMKSVA | DQNTALE | QHYSRLPLT | 0.53 1.33 1.06 1.32 0.46 0.77 | 0 of 18 |
| 3 | KLDLSMSYSHEGRRAIA | NADAHVI | QQYHRLPLI | 0.71 0.47 0.40 0.34 1.04 0.90 | 1 of 18 (2.50) |
| 4 | ALSDWEWAGEENINRIA | DRSALEW | QQYGRLPLS | 0.57 1.23 0.60 1.54 0.79 0.97 | 0 of 18 |
| 5 | RIQEQYQWPQNAGQNVA | EIQTAID | QQYAHLPLS | 1.11 1.40 1.33 2.11 2.36 1.43 | 1 of 18 (2.74) |
| 6 | HVSSMLMAGGGIYNSVA | GNKLLER | QQYMRLPLS | ND 1.69 ND 1.66 1.27 1.00 | 0 of 18 |
| 7 | ILMQVYKEPGAAVNNIA | DGSIRLQ | QQYHRLPLV | 0.51 1.07 0.83 0.71 0.48 0.69 | 0 of 18 |
| 8 | RISVFQNMSTQGNNSIA | GAEQKVH | QQYMRLPLY | 0.69 0.32 0.44 0.42 0.44 0.29 | 1 of 18 (3.97) |
| 9 | AFSEHAFYGQRDENAIA | GADVRAK | QQYWRLPLT | 0.70 0.28 -0.23 0.56 0.76 1.10 | 0 of 18 |
| 10 | SLMNLMGGIEEMKNSIA | NHEIGVR | QQYAHLPLV | ND ND ND ND ND ND | 0 of 18 |
| 11 | QLHAYTQGFKRADGNIA | EISYRAI | QQYGRLPLS | 0.66 1.10 1.05 0.79 1.08 0.88 | 1 of 18 (1.01) |
| 12 | SLMHLSFVHDREWNNVA | DLNVKAS | QQYDRLPLV | 1.35 1.03 1.00 1.10 0.94 1.03 | 1 of 18 (2.87) |
| 13 | NFSEQQKTDREQQYSIA | GMDIREK | QQYGRLPLT | ND ND 1.90 ND 1.82 3.70 | 0 of 18 |
| 14 | NMEGVEFEMAQHGNSVA | GVDLREA | QQYFRLPLH | 0.68 0.91 0.59 0.69 0.56 0.90 | 2 of 18 (3.83) |
| 15 | FLQAFGEESNRNSKNIA | SKETRQV | QQYMRLPLS | 0.95 0.74 0.89 0.82 ND 0.72 | 0 of 18 |
| 16 | TLVDWIQGGTWAKKNVA | DEQTRMV | QQYYRLPLS | 1.86 ND 1.06 1.41 ND 1.36 | 0 of 18 |
| 17 | MLDNCQDEYYQKNNNVA | EMNIRCY | QQYGRLPLM | ND ND ND ND ND ND | 1 of 18 (2.09) |
| 18 | ALSQDGFQQSGMRDSIA | HSDQRLA | QQYYHLPLA | 0.19 0.21 0.28 0.06 0.28 0.14 | 1 of 18 (2.61) |
| 19 | MMDNCQEGYYQQNNNVA | EMNARMM | QQYGRLPLM | 2.14 1.73 0.46 0.84 1.82 1.01 | 1 of 18 (2.84) |
| 20 | HFAYQLQSLYVSKQNVA | NASTVMT | QHYNRLPLS | 1.65 1.60 2.26 1.72 1.20 1.43 | 0 of 18 |
| 21 | KLTKAQYNATSHYQNVA | ESNKIME | QSYYRLPLS | 1.80 ND 1.65 1.33 0.91 2.85 | 0 of 18 |
| 22 | KMRVSLLQGIYRSDSIA | STDIRVL | QQYHHLPLS | 1.50 1.91 1.22 1.72 1.57 1.07 | 1 of 18 (2.65) |
| 23 | SLKYQQDGNGLQRQAIA | GVGLKEL | QQYGRLPLT | 1.35 1.21 0.54 0.74 1.87 0.67 | 0 of 18 |
| 24 | HLAVNMELLDSSKYHVA | NASDREP | QHYNRLPLI | ND 2.00 ND 2.93 1.24 ND | 1 of 18 (2.46) |
| 25 | KLGGEQQNSTYEKDNVA | DVNTTIE | QHYSRLPLT | ND 2.38 1.95 2.24 2.89 1.98 | 1 of 18 (2.84) |
| 26 | VLPDNLLMKESQYHSIA | NGDQRME | QQYMRLPLM | -0.43 -0.55 -0.64 -0.68 -0.61 -0.57 | 0 of 18 |
| 27 | MISQMEAPAGQQESSIA | HGGTKSE | QQYNRLPLA | ND ND 0.72 ND ND ND | 1 of 18 (0.69) |
| 28 | NIVGRVEDKQTETANIA | DAELRAG | QQYSRLPLS | 0.75 1.17 0.59 0.67 0.42 0.66 | 1 of 18 (2.88) |
| 29 | FIEGFGEDSARNSKNIA | SKELRQV | QQYDRLPLS | 0.77 0.65 0.74 0.57 0.42 0.79 | 0 of 18 |
| 30 | NLVGRVPDMYDGRNAIA | DMHCRAT | QQYERLPLA | 1.22 1.06 0.77 0.74 0.93 0.94 | 0 of 18 |
| 31 | ILSDHAVNQYDEADSIA | DKTENAQ | QQYARLPLS | 1.21 1.21 1.05 0.91 1.07 1.37 | 1 of 18 (2.30) |
| 32 | NLPMKELQMSWNVNNVA | DSEQKMK | QQYSRLPLM | 1.62 0.32 0.07 0.77 0.82 0.57 | 0 of 18 |
| 33 | RLNCSQYDKDEHGKAIA | ADQTRMS | QQYFRLPLS | 1.02 1.45 1.28 0.95 1.31 1.34 | 0 of 18 |
| 34 | GVDHTMESGKQAPNSIA | NAEQLQI | QQYQRLPLS | 1.23 0.91 0.60 0.96 1.23 0.10 | 0 of 18 |

The first 4 entries again:

CDR-L1	CDR-L2	CDR-L3	replicates, log10 nM	empty controls
QISVFELQGTGWAQNIA	QASHRTE	QQFSRLPLV	1.59 1.42 1.27 0.47 1.45 0.62	0 of 18
HLGQEGYNQTYAMKSVA	DQNTALE	QHYSRLPLT	0.53 1.33 1.06 1.32 0.46 0.77	0 of 18
KLDLSMSYSHEGRRAIA	NADAHVI	QQYHRLPLI	0.71 0.47 0.40 0.34 1.04 0.90	1 of 18 (2.50)
ALSDWEWAGEENINRIA	DRSALEW	QQYGRLPLS	0.57 1.23 0.60 1.54 0.79 0.97	0 of 18

The range of this assay differs from that of the first round, and the authors advise against merging the two. Of ten entries with the parent sequence, four were seen in most replicates (averages 0.34 to 2.37), three in one and three in none, so single entries are noisy. Three control strains display no target. For all light chain designs, 4% of the pairings with them gave a signal, with a median of 2.64 and one signal in twenty below 1.59, so weak values seen in few replicates may be background. For each scFv, signals with the empty controls are counted beside the result, with their mean in brackets. The authors' rule: three or more of the six replicates give a measured affinity, fewer mean a poor binder.